Each block holds one substance with its values, some of them ahead of it.
Assays:
[1] = molecular target: Membrane human TNFα on MT104 H2 CHO cells (human) (UniProt P01375); test: cell-based or functional assay
[2] = molecular target: Soluble cyno TNFα (cyno) (UniProt P79337); test: cell-based or functional assay
[3] = molecular target: Soluble human TNFα (human) (UniProt P01375); test: cell-based or functional assay
[4] = molecular target: Cynomolgus monkey serum albumin (cynomolgus monkey) (UniProt A2V9Z4); test: SPR, SA on chip, 1:1 fit, 25 C
[5] = molecular target: Dog serum albumin (dog) (UniProt P49822); test: SPR, SA on chip, 1:1 fit, 25 C
[6] = molecular target: Pig serum albumin (pig) (UniProt P08835); test: SPR, SA on chip, 1:1 fit, 25 C
[7] = molecular target: Rat serum albumin (rat) (UniProt P02770); test: SPR, SA on chip, 1:1 fit, 25 C
[8] = molecular target: Cow serum albumin (cow) (UniProt P02769); test: SPR, SA on chip, 1:1 fit, 25 C
[9] = molecular target: Human serum albumin (human) (UniProt P02768); test: SPR, SA on chip, 1:1 fit, 25 C
[10] = molecular target: Mouse serum albumin (mouse) (UniProt P07724); test: SPR, SA on chip, 1:1 fit, 25 C

EC50 (nM)-Geo Mean, Membrane Human TNFα Inhibition [1]: 4.24 nM
EC50 (nM)-Geo Mean, Soluble Cyno TNFα Inhibition [2]: 2.17 nM
EC50 (nM)-Geo Mean, Soluble Human TNFα Inhibition [3]: 0.703 nM
Substance: Control Fab of Example 13 (AdaFab VHCH1 with AdaFab VLCL)
EC50 Geo Mean (µg/mL), L929 cytotoxicity neutralization [1]: 0.201 µg/mL
EC50 Geo Mean (µg/mL), L929 cytotoxicity neutralization [2]: 0.102 µg/mL
EC50 Geo Mean (µg/mL), L929 cytotoxicity neutralization [3]: 0.0333 µg/mL

EC50 (nM)-Geo Mean, Membrane Human TNFα Inhibition [1]: 4.64 nM
EC50 (nM)-Geo Mean, Soluble Cyno TNFα Inhibition [2]: 2.76 nM
EC50 (nM)-Geo Mean, Soluble Human TNFα Inhibition [3]: 0.886 nM
Kd [4]: 4.3 nM
koff [4]: 0.00094 s⁻¹
kon [4]: 220000 M⁻¹ s⁻¹
Kd [5]: 15 nM
koff [5]: 0.0037 s⁻¹
kon [5]: 240000 M⁻¹ s⁻¹
Kd [6]: 83 nM
koff [6]: 0.013 s⁻¹
kon [6]: 150000 M⁻¹ s⁻¹
Kd [7]: 33 nM
koff [7]: 0.0071 s⁻¹
kon [7]: 210000 M⁻¹ s⁻¹
Substance: VHH-based fusion of Example 9, Fab-VHH fusion (AdaFab VHCH1-(G4Q)5-MC6.1C22.43 with AdaFab VLCL) (bispecific antibody)
EC50 Geo Mean (µg/mL), L929 cytotoxicity neutralization [1]: 0.294 µg/mL
EC50 Geo Mean (µg/mL), L929 cytotoxicity neutralization [2]: 0.175 µg/mL
EC50 Geo Mean (µg/mL), L929 cytotoxicity neutralization [3]: 0.0562 µg/mL

Kd [8]: 340 nM
koff [8]: 0.085 s⁻¹
kon [8]: 250000 M⁻¹ s⁻¹
Kd [9]: 1.3 nM
koff [9]: 0.00028 s⁻¹
kon [9]: 210000 M⁻¹ s⁻¹
Kd [10]: 43 nM
koff [10]: 0.01 s⁻¹
kon [10]: 230000 M⁻¹ s⁻¹
Substance: VHH-based fusion of Example 9, Fab-VHH fusion (AdaFab VHCH1-(G4Q)5-MC6.1C22.43 with AdaFab VLCL) (bispecific antibody; other documents disagree on this pair)
